{"sequences": {"note": "Protein sequences, listed by entry. Tags and fused reporters are not part of them.", "UniProt P78527, whole entry": "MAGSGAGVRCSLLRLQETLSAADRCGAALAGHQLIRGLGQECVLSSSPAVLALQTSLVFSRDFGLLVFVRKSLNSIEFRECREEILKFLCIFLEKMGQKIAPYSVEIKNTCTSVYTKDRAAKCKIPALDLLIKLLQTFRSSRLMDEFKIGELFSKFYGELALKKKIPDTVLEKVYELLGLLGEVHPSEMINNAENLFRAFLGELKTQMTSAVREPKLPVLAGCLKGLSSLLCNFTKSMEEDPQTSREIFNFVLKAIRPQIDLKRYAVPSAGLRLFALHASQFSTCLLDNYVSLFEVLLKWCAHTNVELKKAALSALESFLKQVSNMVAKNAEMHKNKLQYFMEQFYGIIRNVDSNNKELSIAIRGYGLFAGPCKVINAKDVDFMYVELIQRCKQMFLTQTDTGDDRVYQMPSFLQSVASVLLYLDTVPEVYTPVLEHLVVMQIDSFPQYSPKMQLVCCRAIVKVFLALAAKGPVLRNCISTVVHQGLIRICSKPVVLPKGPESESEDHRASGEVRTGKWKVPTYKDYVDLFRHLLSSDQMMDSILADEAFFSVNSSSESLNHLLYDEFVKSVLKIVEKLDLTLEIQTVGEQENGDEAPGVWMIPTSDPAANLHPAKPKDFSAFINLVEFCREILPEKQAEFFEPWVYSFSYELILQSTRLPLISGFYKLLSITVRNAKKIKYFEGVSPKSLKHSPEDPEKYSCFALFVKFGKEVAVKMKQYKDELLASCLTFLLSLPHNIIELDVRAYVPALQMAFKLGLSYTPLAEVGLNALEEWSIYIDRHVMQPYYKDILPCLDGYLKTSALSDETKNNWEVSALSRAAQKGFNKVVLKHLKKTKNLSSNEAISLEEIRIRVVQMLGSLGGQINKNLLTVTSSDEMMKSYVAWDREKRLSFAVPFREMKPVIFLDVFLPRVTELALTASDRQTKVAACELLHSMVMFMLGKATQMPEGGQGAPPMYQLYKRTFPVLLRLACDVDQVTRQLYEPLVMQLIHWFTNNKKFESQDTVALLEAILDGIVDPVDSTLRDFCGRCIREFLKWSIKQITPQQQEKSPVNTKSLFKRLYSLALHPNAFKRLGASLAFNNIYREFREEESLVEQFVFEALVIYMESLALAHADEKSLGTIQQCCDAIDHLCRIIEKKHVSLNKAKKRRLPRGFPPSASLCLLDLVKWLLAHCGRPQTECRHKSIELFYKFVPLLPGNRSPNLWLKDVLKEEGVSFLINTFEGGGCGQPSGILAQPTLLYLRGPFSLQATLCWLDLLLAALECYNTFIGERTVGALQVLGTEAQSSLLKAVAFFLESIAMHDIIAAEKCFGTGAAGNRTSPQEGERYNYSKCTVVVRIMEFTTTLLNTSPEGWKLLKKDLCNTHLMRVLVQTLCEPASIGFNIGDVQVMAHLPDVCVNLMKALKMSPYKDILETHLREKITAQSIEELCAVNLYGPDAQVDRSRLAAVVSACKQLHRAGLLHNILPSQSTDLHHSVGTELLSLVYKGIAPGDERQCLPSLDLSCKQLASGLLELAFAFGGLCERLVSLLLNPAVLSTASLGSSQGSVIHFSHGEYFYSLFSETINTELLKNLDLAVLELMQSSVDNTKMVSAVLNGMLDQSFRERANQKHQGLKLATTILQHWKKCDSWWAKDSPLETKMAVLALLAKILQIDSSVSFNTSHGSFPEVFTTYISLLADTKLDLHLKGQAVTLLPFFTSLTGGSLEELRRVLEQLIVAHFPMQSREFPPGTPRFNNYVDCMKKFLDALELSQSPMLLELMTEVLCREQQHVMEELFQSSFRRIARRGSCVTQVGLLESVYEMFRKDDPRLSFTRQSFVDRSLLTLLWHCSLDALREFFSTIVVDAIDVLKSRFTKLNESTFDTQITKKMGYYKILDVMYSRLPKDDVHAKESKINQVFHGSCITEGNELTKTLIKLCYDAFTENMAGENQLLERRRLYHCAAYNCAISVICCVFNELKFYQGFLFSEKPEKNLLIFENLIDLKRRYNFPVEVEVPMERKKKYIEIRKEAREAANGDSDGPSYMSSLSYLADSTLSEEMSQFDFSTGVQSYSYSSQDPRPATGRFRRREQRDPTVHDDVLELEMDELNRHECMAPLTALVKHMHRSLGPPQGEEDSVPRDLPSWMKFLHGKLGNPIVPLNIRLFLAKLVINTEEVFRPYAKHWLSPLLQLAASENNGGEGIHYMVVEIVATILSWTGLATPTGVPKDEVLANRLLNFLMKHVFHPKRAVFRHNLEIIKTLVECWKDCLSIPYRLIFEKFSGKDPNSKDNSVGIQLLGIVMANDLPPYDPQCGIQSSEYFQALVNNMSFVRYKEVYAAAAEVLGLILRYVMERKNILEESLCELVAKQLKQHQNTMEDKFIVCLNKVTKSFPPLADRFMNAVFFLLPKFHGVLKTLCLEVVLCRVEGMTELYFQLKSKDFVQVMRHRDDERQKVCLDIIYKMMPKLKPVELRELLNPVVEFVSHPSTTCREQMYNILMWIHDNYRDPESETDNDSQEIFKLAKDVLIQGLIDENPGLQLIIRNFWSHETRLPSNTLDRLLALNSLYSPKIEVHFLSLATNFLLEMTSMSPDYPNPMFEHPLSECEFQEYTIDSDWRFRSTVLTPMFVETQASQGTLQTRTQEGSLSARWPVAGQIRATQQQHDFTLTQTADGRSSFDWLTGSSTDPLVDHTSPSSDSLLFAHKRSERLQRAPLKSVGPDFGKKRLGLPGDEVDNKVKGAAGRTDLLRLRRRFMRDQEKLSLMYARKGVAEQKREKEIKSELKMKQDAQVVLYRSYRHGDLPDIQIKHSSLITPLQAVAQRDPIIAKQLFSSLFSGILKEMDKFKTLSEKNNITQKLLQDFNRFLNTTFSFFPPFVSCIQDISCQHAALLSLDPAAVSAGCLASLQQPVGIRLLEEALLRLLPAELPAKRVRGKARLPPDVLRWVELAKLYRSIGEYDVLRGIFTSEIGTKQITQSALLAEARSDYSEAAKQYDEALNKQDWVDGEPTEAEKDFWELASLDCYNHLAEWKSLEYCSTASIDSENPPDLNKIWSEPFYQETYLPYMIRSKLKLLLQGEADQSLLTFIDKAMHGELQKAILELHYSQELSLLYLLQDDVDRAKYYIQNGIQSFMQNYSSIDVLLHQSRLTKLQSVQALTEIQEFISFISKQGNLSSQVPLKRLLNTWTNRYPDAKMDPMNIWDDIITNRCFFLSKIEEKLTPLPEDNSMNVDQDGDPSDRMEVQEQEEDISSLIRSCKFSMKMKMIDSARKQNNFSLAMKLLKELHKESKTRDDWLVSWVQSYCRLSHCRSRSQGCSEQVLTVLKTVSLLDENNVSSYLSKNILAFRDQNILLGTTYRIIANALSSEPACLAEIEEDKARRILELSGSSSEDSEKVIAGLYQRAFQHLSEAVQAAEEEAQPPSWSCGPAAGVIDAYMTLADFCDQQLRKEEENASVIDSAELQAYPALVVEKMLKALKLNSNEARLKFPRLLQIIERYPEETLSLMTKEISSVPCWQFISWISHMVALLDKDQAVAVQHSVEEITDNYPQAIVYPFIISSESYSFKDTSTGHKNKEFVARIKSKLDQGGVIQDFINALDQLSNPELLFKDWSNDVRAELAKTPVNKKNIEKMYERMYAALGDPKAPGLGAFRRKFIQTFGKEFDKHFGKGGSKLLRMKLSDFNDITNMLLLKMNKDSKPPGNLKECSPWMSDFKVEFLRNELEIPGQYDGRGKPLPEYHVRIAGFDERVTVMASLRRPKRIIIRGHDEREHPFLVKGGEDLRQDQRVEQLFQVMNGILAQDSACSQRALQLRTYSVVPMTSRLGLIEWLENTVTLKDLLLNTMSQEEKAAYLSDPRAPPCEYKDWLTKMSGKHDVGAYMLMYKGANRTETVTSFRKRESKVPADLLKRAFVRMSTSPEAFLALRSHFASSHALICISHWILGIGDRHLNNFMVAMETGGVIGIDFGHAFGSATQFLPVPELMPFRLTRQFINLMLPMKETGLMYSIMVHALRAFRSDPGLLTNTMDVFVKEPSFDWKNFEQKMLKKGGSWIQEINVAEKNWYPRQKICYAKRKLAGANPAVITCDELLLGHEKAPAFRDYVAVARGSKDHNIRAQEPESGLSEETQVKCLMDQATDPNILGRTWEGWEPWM"}, "source": "patent US8242115B2", "about": "“Materials and methods to potentiate cancer treatment” (Luitpold Pharmaceuticals, Inc., priority 2000, dated 2012)", "target": "T1, human DNA-PK (Homo sapiens, UniProt P78527)", "T1 construct": "The frozen HeLa cell pellet was thawed at 37° C. and immediately centrifuged; endogenous in cells; host or cells: HeLa S3 cells (ATCC CCL-2.2); Endogenous enzyme purified via S100-2 fraction, Q-Sepharose FF and SP-Sepharose FF (fraction IV)", "assay": "Standard DNA-PK assay (p53 peptide phosphorylation)", "assay_type": "biochemical", "protocol": "Reactions were carried out at room temperature. Reactions were started by addition of ATP and stopped by application to phosphocellulose paper. Reaction products spotted onto phosphocellulose paper were washed five times with a total volume of at least 250 mL 10% acetic acid or 150 mM phosphoric acid. The paper was air dried and radioactivity was determined in a Beckman LS6000IC scintillation counter."}
{"smiles": "COC[C@H]1OC(=O)c2coc3c2[C@@]1(C)C1=C(C3=O)[C@@H]2CCC(=O)[C@@]2(C)C[C@H]1OC(C)=O", "note": "[wortmannin, reference compound]", "values": [{"measurement": "IC50", "result": "100 to 250", "unit": "nM"}]}
